Assay results reported in patent publication US10328055B2, “Pharmaceutical composition comprising (1r,4r)-6′-fluoro-N,N-dimethyl-4-phenyl-4′,9′-dihydro-3′H-spiro[cyclohexane-1,1′-pyrano[3,4,b]indo]-4-amine and antidepressants” (dated 2019).
Where “and” joins values, the source holds several entries; their conditions need not be identical. Equal entries are not always repeated. Where two headings read alike, the source gives them in different places.

System: male Sprague-Dawley rats

CN(C)[C@]1(c2ccccc2)CC[C@]2(CC1)OCCc1c3cc(F)ccc3[nH]c12
% MPE (Maximum possible effect), withdrawal threshold of the ipsi-lateral hind paw, Mean SEM (30 min after i.v. administration; n = 10; part a): second ingredient = (S)-duloxetine hydrochloride, doses: first (hemicitrate) 0.0316 μg/kg, second 0.100 mg/kg, combination 0.0316 μg/kg + 0.100 mg/kg (ratio 1:3,164)): 21.0 % MPE and 21.0 ± 12.5 % MPE | % MPE (Maximum possible effect), withdrawal threshold of the ipsi-lateral hind paw, Mean SEM (30 min after i.v. administration; n = 10; part b): second ingredient = reboxetine mesylate, doses: first (hemicitrate) 0.0316 μg/kg, second 0.316 mg/kg, combination 0.0316 μg/kg + 0.316 mg/kg (ratio 1:10,000)): 20.9 % MPE and 20.9 ± 12.5 % MPE | % MPE (Maximum possible effect), withdrawal threshold of the ipsi-lateral hind paw, Mean SEM (60 min after i.v. administration; n = 10; part a): second ingredient = (S)-duloxetine hydrochloride, doses: first 0.0316 μg/kg, second 0.100 mg/kg, combination 0.0316 μg/kg + 0.100 mg/kg): 8.4 ± 10.9 % MPE | % MPE (Maximum possible effect), withdrawal threshold of the ipsi-lateral hind paw, Mean SEM (60 min after i.v. administration; n = 10; part b): second ingredient = reboxetine mesylate, doses: first 0.0316 μg/kg, second 0.316 mg/kg, combination 0.0316 μg/kg + 0.316 mg/kg): 8.4 ± 10.8 % MPE | % MPE (Maximum possible effect), withdrawal threshold of the ipsi-lateral hind paw, Mean SEM (180 min after i.v. administration; n = 10; part a): second ingredient = (S)-duloxetine hydrochloride, doses: first 0.0316 μg/kg, second 0.100 mg/kg, combination 0.0316 μg/kg + 0.100 mg/kg): −1.4 ± 6.1 % MPE | % MPE (Maximum possible effect), withdrawal threshold of the ipsi-lateral hind paw, Mean SEM (180 min after i.v. administration; n = 10; part b): second ingredient = reboxetine mesylate, doses: first 0.0316 μg/kg, second 0.316 mg/kg, combination 0.0316 μg/kg + 0.316 mg/kg): −1.4 ± 6.1 % MPE
